Literature values, collected in publication PMC5903342, “Atorvastatin Downregulates In Vitro Methyl Methanesulfonate and Cyclophosphamide Alkylation-Mediated Cellular and DNA Injuries” (Oxidative Medicine and Cellular Longevity, 2018).

Test system: human umbilical vein endothelial cells (HUVEC)
Details: effects caused by doxorubicin, etoposide, and MMS; cited from earlier work

Structure (SMILES): CC[C@H](C)C(=O)O[C@H]1C[C@@H](C)C=C2C=C[C@H](C)[C@H](CC[C@@H]3C[C@@H](O)CC(=O)O3)[C@H]21 [LOVA, lovastatin]
- Prevention of genotoxic and cytotoxic effects: prevent genotoxic and cytotoxic effects
